Experimental data taken from patent US5710150A, “Benzazepine derivative, pharmaceutical composition thereof, and intermediate thereof” (Yamanouchi Pharmaceutical Co., Ltd., priority 1993, dated 1998).

System: V1
Test: V1 antagonism in conscious rats (oral administration), AVP-induced diastolic blood pressure increase
Type: in vivo, male Wister rats
Conditions: 10 mg/kg oral, AVP 30 mU/kg i.v.

SMILES: CC(=O)NCCCOc1ccc(C(=O)N2CCC(N3C(=O)CCc4ccccc43)CC2)cc1
- Pressure increment by AVP (before compound = 100%) (4 hours after administration): 100%
- Pressure increment by AVP (before compound = 100%) (only during 30 minutes to 1 hour after administration): ≤ 50%
